PubChem BioAssay AID463104 (Sanford-Burnham Center for Chemical Genomics, 2010)
Only a part is listed here, and it is no random draw. The source made the active and inactive calls.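 How the source made its calls: active means versus positive control, 20 µM dose yields 30% or more activation; inactive means the rest.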

Assay: IRE1-XBP1 pathway stimulators – cell-based, CHO-XBP1 luciferase reporter, luminescence, uHTS, primary screen (AID 463104);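 further: 100% = tunicamycin at 10 µg/mL and 0% = DMSO only wells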
Details: IRE1-XBP1 UPR activation, at 20 µM, stronger effect = higher value, percent of tunicamycin response, DMSO as zero
Method in brief: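 Material: CHO cell line with stable XBP1 luciferase reporter; schedule: 16-18 h cell attachment at 37 °C, then 6 h compound exposure; signal: glow luminescence from Steady-Glo reagent; medium: serum-containing F12 medium, 10% FBS; benchmarks: tunicamycin 10 µg/mL and vehicle-only wells; read-out: percent activation relative to tunicamycin reference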
For `COc1cc(OC)c(C(=O)NCC2(N(C)C)CCCCC2)cc1OC`, the activation was inactive: -0.06%.
In the case of `O=C(NCC1(N2CCOCC2)CCCCC1)c1cc(F)c(F)cc1Cl`, the activation is reported as inactive: -0.74%.
In the case of `COc1ccc(CN(CCCl)CCCl)cc1Cl`, the activation is reported as inactive: 2.98%.
For `CN(C)c1cccc(C(=O)NCC2(N3CCCCC3)CCCCC2)c1`, the activation was inactive: 1.17%.
For `CC(C)c1ccc(NC2CCN(C(=O)OC(C)(C)C)CC2)cc1`, the activation was inactive: -2.93%.
For `O=C(NCC1(N2CCCCC2)CCCCC1)c1cncc(Br)c1`, the activation was inactive: -1.97%.
With `CN1CCC(Nc2cccc(F)c2)CC1` the activation was inactive: -2.46%.
For `CSc1ccc(C(=O)NCC2(N3CCOCC3)CCCCC2)cc1`, the activation was inactive: -2.24%.
With `O=C(NCC1(N2CCCCC2)CCCCC1)c1cccc([N+](=O)[O-])c1` the activation was inactive: -1.69%.
For `CCN1CCC(Nc2ccc(Cl)cc2)CC1`, the activation was inactive: -4.88%.
For `N#CC1(Nc2ccccc2)CCN(CCc2ccccc2)CC1`, the activation was inactive: -8.56%.
With `O=C(NCC1(N2CCCCC2)CCCCC1)c1ccc(OC(F)F)cc1` the activation was inactive: -3.54%.
For `CN1CCN(CCOC(=O)C(O)(c2ccccc2)c2ccccc2)CC1`, the activation was inactive: -2.61%.
With `CC(C)c1ccc(C(=O)NCC2(N3CCOCC3)CCCCC2)cc1` the activation was inactive: -0.51%.
In the case of `COc1ccc(NC2CCN(C(=O)OC(C)(C)C)CC2)cc1`, the activation is reported as inactive: -1.78%.
For `COc1cc(C(=O)NCC2(N3CCCCC3)CCCCC2)ccc1OC(F)F`, the activation was inactive: -3.52%.
In the case of `O=C(NCC1(N2CCOCC2)CCCCC1)c1cc(=O)[nH]c2ccccc12`, the activation is reported as inactive: -1.82%.
For `O=C(NCC1(N2CCCCC2)CCCCC1)c1cccc(C(F)(F)F)c1`, the activation was inactive: -3.08%.
With `O=C(NCC1(N2CCCCC2)CCCCC1)c1ccc(F)cc1` the activation was inactive: 4.01%.
For `CCCCOc1ccc(C(=O)NCC2(N3CCOCC3)CCCCC2)cc1`, the activation was inactive: 0.29%.
With `COc1ccc(NC2CCN(CCc3ccccc3)CC2)c(OC)c1` the activation was inactive: -2.41%.
For `CCOC(=O)N1CCC(Nc2ccc(F)cc2)CC1`, the activation was inactive: -2.45%.
For `CCOc1ccc(C)cc1CN(CCCl)CCCl`, the activation was inactive: -2.34%.
With `CCOC(=O)N1CCC(Nc2cccc(C)c2)CC1` the activation was inactive: -1.04%.
With `Cc1ccc(OCC(C)C)c(CN(CCCl)CCCl)c1` the activation was inactive: -2.49%.
With `CSc1ccccc1C(=O)NCC1(N2CCCCC2)CCCCC1` the activation was inactive: -2.62%.
With `O=C(NCC1(N2CCCCC2)CCCCC1)c1ccc(=O)[nH]c1` the activation was inactive: -3.74%.
In the case of `O=C(NCC1(N2CCCCC2)CCCCC1)c1cccs1`, the activation is reported as inactive: -0.07%.
For `COc1ccc(C(=O)NCC2(N3CCCCC3)CCCCC2)cc1`, the activation was inactive: -0.38%.
For `CC(C)(C)OC(=O)N1CCC(N(C(=O)c2ccccc2)c2ccc(F)cc2)CC1`, the activation was inactive: -5.7%.
With `COc1ccc(C(=O)NCC2(N3CCCCC3)CCCCC2)c(OC)c1OC` the activation was inactive: -2.35%.
For `CCOC(=O)N1CCC(Nc2ccc(OC)cc2)CC1`, the activation was inactive: 0.87%.
In the case of `O=C(OC1CN2CCC1CC2)C1c2ccccc2Oc2ccccc21` (configuration not stated), the activation is reported as inactive: 1.77%.
With `N#CC1(Nc2ccccc2)CCN(Cc2ccccc2)CC1` the activation was inactive: -3.25%.
For `O=C(NCC1(N2CCCCC2)CCCCC1)c1ccc(Cl)s1`, the activation was inactive: 2.5%.
For `COc1ccc(Cl)cc1C(=O)NCC1(N2CCOCC2)CCCCC1`, the activation was inactive: -1.31%.
In the case of `O=C(NCC1(N2CCOCC2)CCCCC1)c1cc2ccccc2o1`, the activation is reported as inactive: -4.15%.
With `O=C(NCC1(N2CCCCC2)CCCCC1)c1ccc(Cl)nc1` the activation was inactive: -2.29%.
With `Cc1cc(C)cc(N(C(=O)c2ccccc2)C2CCN(C(=O)OC(C)(C)C)CC2)c1` the activation was inactive: -8.6%.
With `CCCOc1ccc(C(=O)NCC2(N(C)C)CCCCC2)cc1` the activation was inactive: 2.72%.
For `CC(C)(C)OC(=O)N1CCC(Nc2ccccc2)CC1`, the activation was inactive: 2.69%.
For `O=C(O)C1(Nc2ccccc2)CCN(Cc2ccccc2)CC1`, the activation was inactive: 1.23%.
With `CCOc1ncccc1C(=O)NCC1(N2CCOCC2)CCCCC1` the activation was inactive: 0.17%.
In the case of `CN1CCC(Nc2ccc(F)c(Cl)c2)CC1`, the activation is reported as inactive: -1.02%.
For `CCCOc1ccc(C)cc1CN(CCCl)CCCl`, the activation was inactive: -1.64%.
In the case of `CN1CCC(Nc2ccc(Cl)cc2)CC1`, the activation is reported as inactive: 0.56%.
For `CCC(CO)(C(=O)OC1CN2CCC1CC2)c1ccccc1` (configuration not stated), the activation was inactive: 0.09%.
With `COc1cc(OC)cc(C(=O)NCC2(N3CCOCC3)CCCCC2)c1` the activation was inactive: -1.83%.
With `COc1cccc(C(=O)N(c2cc(C)cc(C)c2)C2CCN(C(=O)OC(C)(C)C)CC2)c1` the activation was inactive: -7.14%.
For `Cc1ccc(C(=O)NCC2(N3CCCCC3)CCCCC2)o1`, the activation was inactive: 2.02%.
For `Fc1ccccc1NC1CCN(Cc2ccccc2)CC1`, the activation was inactive: 0.26%.
With `COc1cc(OC)cc(C(=O)NCC2(N3CCCCC3)CCCCC2)c1` the activation was inactive: -0.52%.
For `O=C(NCC1(N2CCCCC2)CCCCC1)c1ccco1`, the activation was inactive: 2.84%.
For `CN(C)c1ccc(C(=O)NCC2(N3CCCCC3)CCCCC2)cc1`, the activation was inactive: 0.44%.
With `CCN1CCC(Nc2cccc(F)c2)CC1` the activation was inactive: -1.96%.
With `CC(C)(C)OC(=O)N1CCC(N(C(=O)c2ccccc2)c2ccc(Cl)cc2)CC1` the activation was inactive: -3.89%.
In the case of `N#Cc1ccc(C(=O)NCC2(N3CCCCC3)CCCCC2)cc1`, the activation is reported as inactive: -1.69%.
For `c1ccc(CN2CCC(Nc3ccccc3)CC2)cc1`, the activation was inactive: -1.17%.
For `CCCN1CCC(Nc2cc(OC)cc(OC)c2)CC1`, the activation was inactive: -2.97%.
For `CN(C)C1(CNC(=O)c2cccc(C#N)c2)CCCCC1`, the activation was inactive: -4.2%.
With `COc1ccc(C(=O)NCC2(N3CCOCC3)CCCCC2)cc1OC` the activation was inactive: -3.34%.
For `O=C(NCC1(N2CCOCC2)CCCCC1)c1cc(Br)ccc1Cl`, the activation was inactive: 0.83%.
For `COc1cc(C(=O)NCC2(N3CCOCC3)CCCCC2)cc(OC)c1C`, the activation was inactive: -1.12%.
For `O=C(OC1CN2CCC1CC2)C1c2ccccc2C=Cc2ccccc21` (configuration not stated), the activation was inactive: 0.44%.
With `CCc1cc(C(=O)NCC2(N3CCCCC3)CCCCC2)sc1C` the activation was inactive: 5.14%.
In the case of `N/C(=N\O)c1c(N)no[n+]1[O-]`, the activation is reported as inactive: -0.99%.
For `CCOC(=O)N1CCC(Nc2ccc(C)cc2)CC1`, the activation was inactive: -2.31%.
